Article PMC5786306, “An AKAP-Lbc-RhoA interaction inhibitor promotes the translocation of aquaporin-2 to the plasma membrane of renal collecting duct principal cells” (PLoS ONE, 2018)
Like-named read-outs stand apart in the source and are kept apart here.

The chains behind the UniProt entries cited, without tags or fusion partners.
UniProt P61586, whole entry: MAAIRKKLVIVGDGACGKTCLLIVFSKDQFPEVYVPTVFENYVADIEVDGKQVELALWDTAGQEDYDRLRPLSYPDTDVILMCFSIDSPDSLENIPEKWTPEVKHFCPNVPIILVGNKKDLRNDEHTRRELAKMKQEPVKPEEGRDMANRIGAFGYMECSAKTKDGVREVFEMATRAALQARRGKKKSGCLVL

How the values were obtained:
[1] = Nephelometric solubility; conditions: maximal solubility in DMEM + 10 % FCS; for Solubility 0.3 % DMSO: 0.3 % DMSO final; for Solubility 2 % DMSO: 2 % DMSO final
[2] = biological target: interaction of AKAP-Lbc/DHPH and RhoA (Homo sapiens, UniProt P61586); assay: Homogeneous time-resolved fluorescence (HTRF) assay
[3] = biological target: AKAP-Lbc/DHPH-induced RhoA activation (Homo sapiens, UniProt P61586); assay: Guanine nucleotide exchange (GEF) assay with mant-GTP (screen and secondary assays); conditions: for ResidualPercentActivity / z_score: screening data
[4] = read-out: HTRF assay IC50, Suppl. Tab. 3, ± SEM, '-' = no IC50, inactive, n.d. = not determined
[5] = read-out: IC50_uM, Suppl. Tab. 2, tested at 1, 10 and 100 μM
[6] = read-out: IC50 for inhibition of AKAP-Lbc/DHPH-induced RhoA activation, nucleotide exchange assay, Fig 1D

SMILES	Solubility 0.3 % DMSO [1] [µM]	Solubility 2 % DMSO [1] [µM]	IC50 [2, 4] [µM]	ResidualPercentActivity ([3]; Suppl. Tab. 2) [%]	z_score ([3]; Suppl. Tab. 2)	IC50 [3, 5] [µM]	IC50 [3, 6] [µM]	IC50 ([2]; read-out: IC50 ± SEM, Table 1, HTRF, '-' = no IC50, inactive (n.d. is used separately in S3 Table)) [µM]
CCOC(=O)CCc1c(C)c2ccc(OCC(=O)c3ccccc3)cc2oc1=O	40	90	> 200	–	–	–	–	–
Cc1nc(-c2ccc(F)cc2)ccc1C(=O)COc1ccc2c(C)c(CCC(=O)O)c(=O)oc2c1	> 150	20	> 200	–	–	–	–	–
Cc1c(C)c2ccc(OCC(=O)c3ccc(-c4ccccc4)cc3)cc2oc1=O	75	90	> 200	–	–	–	–	–
Cc1cc(=O)oc2c(C)c3occ(-c4ccccc4)c3cc12	–	–	–	74.0	-1.8	21	–	–
CCCCc1cc(=O)oc2cc3occ(-c4ccc(OC)cc4)c3cc12	–	–	–	-39.0	-11.8	–	79	–
Cc1c(CCC(=O)O)c(=O)oc2cc3occ(-c4ccc5ccccc5c4)c3cc12	> 30	20	> 200	–	–	–	–	–
CCCc1cc(=O)oc2cc3occ(-c4ccc(OC)cc4)c3cc12	–	–	–	1.0	-8.2	–	40	–
COc1ccc(COc2ccc3c(C)c(CCC(=O)O)c(=O)oc3c2)cc1	> 150	100	> 200	–	–	–	–	–
CCc1cc(=O)oc2c(C)c3occ(-c4ccc(OC)cc4)c3cc12	–	–	–	104.0	1.0	14	–	–
Cc1c(CCC(=O)O)c(=O)oc2cc(OCC(=O)c3ccc(C(F)(F)F)cc3)ccc12	> 30	100	> 200	–	–	–	–	–
COc1ccc(-c2coc3cc4oc(=O)c(CCC(=O)Nc5cccnc5)c(C)c4cc23)cc1	> 30	10	> 200	–	–	–	–	–
O=c1oc2cc3occ(-c4ccc5c(c4)OCO5)c3cc2c2c1CCCC2	–	–	–	-4.0	-8.6	10	–	–
Cc1cccc(C)c1Nc1c(-c2c[nH]c3ccccc23)nc2cnccn12	–	–	–	-61.0	-9.0	15	–	–
COc1ccc2cc(C(=O)COc3ccc4c(C)c(CCC(=O)O)c(=O)oc4c3)ccc2c1	–	–	–	–	–	–	–	> 200
CCOC(=O)CCc1c(C)c2ccc(OCC(=O)c3ccncc3)cc2oc1=O	> 150	100	> 200	–	–	–	–	–
Cc1oc2cc3oc(=O)cc(-c4ccccc4)c3cc2c1C	–	–	–	62.0	-2.7	37	–	–
CCOC(=O)CCc1c(C)c2ccc(OCC(=O)c3ccc(N(C)C)cc3)cc2oc1=O	40	10	> 200	–	–	–	–	–

SMILES	Solubility 0.3 % DMSO [1] [µM]	Solubility 2 % DMSO [1] [µM]	IC50 [2, 4] [µM]	ResidualPercentActivity ([3]; Suppl. Tab. 2) [%]	z_score ([3]; Suppl. Tab. 2)	IC50 [3, 5] [µM]	IC50 [3, 6] [µM]	IC50 ([2]; read-out: IC50 ± SEM, Table 1, HTRF, '-' = no IC50, inactive (n.d. is used separately in S3 Table)) [µM]
CCOC(=O)CCc1c(C)c2ccc(OCC(=O)c3ccc(-c4cccc(OC)c4)cc3)cc2oc1=O	10	10	> 200	–	–	–	–	–
Cc1c(C)c2ccc(OCC(=O)c3ccc4ccccc4c3)cc2oc1=O	40	70	> 200	–	–	–	–	–
COc1cc(NC(=O)Cn2c3ccccc3c(=O)c3ccccc32)cc(OC)c1OC	–	–	–	93.0	0.1	40	–	–
Cc1c(CCC(=O)O)c(=O)oc2cc(OCC(=O)c3ccc(Oc4ccccc4)cc3)ccc12	–	30	> 200	–	–	–	–	–
CCOC(=O)CCc1c(C)c2ccc(OCC(=O)c3ccc(OCC(=O)c4ccc(O)cc4)cc3)cc2oc1=O	> 150	80	> 200	–	–	–	–	–
Cc1nc(-c2ccc(F)cc2)ccc1-c1coc2cc3oc(=O)c(CCC(=O)O)c(C)c3cc12	> 150	10	> 200	–	–	–	–	–
COc1ccc2cc(C(=O)COc3ccc4c(C)c(C)c(=O)oc4c3)ccc2c1	40	35	> 200	–	–	–	–	–
CCOC(=O)c1c(-c2ccccc2)oc2cc(Br)c(OC(C)=O)cc12	–	–	–	10.0	-9.2	31	–	–
COc1ccc(-c2coc3cc4oc(=O)cc(C)c4cc23)cc1	–	–	–	105.0	0.9	31	–	–
Cc1c(C)c2ccc(OCC(=O)c3ccc(Oc4ccccc4)cc3)cc2oc1=O	> 150	100	> 200	–	–	–	–	–
CCOC(=O)CCc1c(C)c2ccc(OCC(=O)c3ccc(O)cc3)cc2oc1=O	> 150	100	> 200	–	–	–	–	–
CCOC(=O)CCc1c(C)c2ccc(OCC(=O)c3ccc(-c4ccccc4)cc3)cc2oc1=O	20	10	> 200	–	–	–	–	–
CCOC(=O)CCc1c(C)c2ccc(OCC(=O)c3ccc4cc(OC)ccc4c3)cc2oc1=O	40	10	> 200	–	–	–	–	–
CCOC(=O)CCc1c(C)c2ccc(OCC(=O)c3ccc(Oc4ccccc4)cc3)cc2oc1=O	> 30	30	> 200	–	–	–	–	–
CCc1cc(=O)oc2cc3occ(C)c3cc12	–	–	–	71.0	-2.3	39	–	–
CCOC(=O)CCc1c(C)c2ccc(OCC(=O)c3ccc(C(F)(F)F)cc3)cc2oc1=O	75	50	> 200	–	–	–	–	–
